Experimental data as given in patent US20030181404A1 (BETH ISRAEL DEACONESS MEDICAL CENTER, published 2003).

Biological target: T1, HRG-activated ErbB-2 receptor (tyrosine-phosphorylated 185 kD protein) (human (human breast cancer cell lines), UniProt P04626, tyrosine-phosphorylated upon HRG stimulation (sites not given))
T1 construct: Endogenous full-size protein from detergent lysates of cells stimulated with 10 nM heregulin; also called p185 ErbB-2; neu/HER-2
Test: GST pull-down from HRG-stimulated T47D lysates, immunoblot

binding result: no binding
B1: GST protein alone (other, UniProt P08515 1-218, looked up)
chain: MSPILGYWKIKGLVQPTRLLLEYLEEKYEEHLYERDEGDKWRNKKFELGLEFPNLPYYIDGDVKLTQSMAIIRYIADKHNMLGGCPKERAEISMLEGAVLDIRYGVSRIAYSKDFETLKVDFLSKLPEMLKMFEDRLCHKTYLNGDHVTHPDFMLYDALDVVLYMDPMCLDAFPKLVCFKKRIEAIPQIDKYLKSSKYIAWPLQGWQATFGGGDHPPK
notes: Control
